Measurements: patent US6743443B1, “Tablets immediately disintegrating in the oral cavity” (Eisai Co., Ltd., priority 1998, dated 2004)

Assay: Solubility at 37 °C in the disintegration test solutions of the Japanese Pharmacopoeia
Excerpt: However, there has been no report yet for an intraoral quickly disintegrating tablet containing a slightly soluble pharmaceutical agent having an improved solubility as such and for a method of manufacturing the tablet. One of the reasons therefor is that it is difficult for satisfying all of the requirements for improving the solubility of the slightly soluble pharmaceutical agent, for a quick disintegration in the mouth and for ensuring a good touch on the tongue upon disintegration. Many of the pharmaceutical ingredients acting as a cyclic GMP phosphodiesterase inhibitor are the compounds having a relatively low solubility and are within a category of the slightly soluble pharmaceutical agents.

sildenafil (citrate)
Solubility in the first disintegration test solution (first disintegration test solution (pH 1.2)): 2520 µg/mL | Solubility in the second disintegration test solution (second disintegration test solution (pH 6.8)): 110 µg/mL
